The numbers were not newly measured in patent US8324156B2, “Oral insulin therapies and protocol” (Emisphere Technologies, Inc., priority 2003, dated 2012), which cites them from elsewhere.

The conditions of this data set: food effect; cited from earlier work.

`CN(CCOc1ccc(CC2SC(=O)NC2=O)cc1)c1ccccn1` (stereo not shown) [AVANDIA® thiazolidinedione, rosiglitazone]: the “decrease in Cmax when given with food” value is 28%.
